{"source": "paper PMC11859636", "about": "“Design, Synthesis, and Mechanistic Anticancer Evaluation of New Pyrimidine-Tethered Compounds” (Pharmaceuticals, 2025)", "test_system": "Jurkat cells", "assay": "MTT assay for cytotoxicity, Jurkat cells", "type": "cell-based, human", "settings": "IC50 for PBMC/IC50 for Jurkat cell line", "protocol": "Dulbecco’s modified Eagle’s medium (DMEM) (Wako Pure Chemical Industries, Osaka, Japan) containing 10% fetal bovine serum (FBS) (Equitech-Bio, Kerrville, TX, USA) was used for the culture of A549 and MCF-7 human cancer cells, while RPMI 1640 (Wako Pure Chemical Industries) containing 10% FBS was used for the culture of Jurkat cells, derived from human leukemia. On the other hand, PBMCs (Precision Bioservices, Frederick, MD, USA) were incubated in RPMI 1640 supplemented with 10% human serum AB (HS) (Gemini, Woodland, CA, USA). All media also incorporated 89 μg/mL of streptomycin (Meiji Seika Pharma, Tokyo, Japan), and cells were maintained at 37 °C in a 95% air and 5% CO2 humidified chamber. The microtiter tissue culture plates (24-well and 96-well) (Iwaki, Asahi Glass Co., Chiba, Japan) were used for cancer cells (4 × 10^4 cells/mL) and PBMCs (5 × 10^5 cells/mL), respectively. Prior to drug treatment, all of these cells were incubated for 72 h. The optimal cell density for cytotoxicity testing was established in preliminary experiments. […]\nThe cellular reduction in MTT (Dojindo Molecular Technologies, Kumamoto, Japan) was measured as described in the literature with minor modifications. […] Absorbance was measured at 570 nm using an Infinitive M1000 microplate spectrophotometer (Tecan, Groding, Austria). […]", "data": [{"molecule": "CS(=O)(=O)CCNCc1ccc(-c2ccc3ncnc(Nc4ccc(OCc5cccc(F)c5)c(Cl)c4)c3c2)o1", "note": "[Lapatinib]", "values": [{"measurement": "SI (Selectivity Index)", "result": 8.89}]}]}
